For the series, the system named is human red blood cells (hRBC). In words: Hemolysis (hemoglobin release assay). Particulars: mean.

Molecules are shown by their SMILES.

In publication PMC11484942, “Rumicidins are a family of mammalian host-defense peptides plugging the 70S ribosome exit tunnel” (Nature Communications, 2024) one finds Hemolysis data, which are given here for 1 compound.

As to `CC[C@H](C)[C@H](NC(=O)CN)C(=O)NCC(=O)N[C@@H](C)C(=O)N[C@H](C(=O)N[C@@H](CC(C)C)C(=O)N[C@@H](CCCCN)C(=O)N[C@H](C(=O)N[C@@H](CC(C)C)C(=O)N[C@H](C(=O)N[C@H](C(=O)NCC(=O)N[C@@H](CC(C)C)C(=O)N1CCC[C@H]1C(=O)N[C@@H](C)C(=O)N[C@@H](CC(C)C)C(=O)N[C@H](C(=O)N[C@@H](CO)C(=O)N[C@@H](Cc1c[nH]c2ccccc12)C(=O)N[C@H](C(=O)N[C@@H](CCCCN)C(=O)N[C@@H](CCCNC(=N)N)C(=O)N[C@@H](CCCCN)C(=O)N[C@@H](CCCNC(=N)N)C(=O)N[C@@H](CCC(N)=O)C(=O)N[C@@H](CCC(N)=O)C(N)=O)[C@@H](C)CC)[C@@H](C)CC)[C@@H](C)O)[C@@H](C)O)C(C)C)C(C)C` [Melittin], the Hemolysis by setting is: (0.5 µM) 3.035%; (1 µM) 8.361%; (2 µM) 17.031%; (4 µM) 42.344%; (8 µM) 94.219%; (16 µM) 102.35%. This compound also had a Hemolysis (32 µM) of 99.08%.
